# High-throughput results from PubChem BioAssay.
# The list is not random: actives were taken first. Their share in the collection is about 3.7%.
# Nrf2 activator: Nrf2 pathway activation; AREc32 ARE-luciferase reporter (MCF7-derived line), luminescence, 24 h; Potency, µM (titrated, usually from 46.1 µM), inactives show top-dose activation, actives largely listed as activators; actives 0.31% (n = 410,000); note: potency is the fitted concentration of half-maximal effect; % of control where 0% means no effect; nearly all actives have a fitted effect of over 65% in size
#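 Luminescent ARE reporter assay in AREc32_Fluc cells: overnight plating at 37 deg C, 24 hr compound incubation, Steady-Glo added, 30 min RT before reading.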
# miR-21 reporter: miR-21 reporter, rising signal. 340,000 tested, under 10 active. Potency, µM (highest dose often 38.3 µM), for the others: at the highest dose reporter change, positive = more light. HeLa miR-21 FLuc reporter, luciferase, 48 h. AID 2288; active = well fitted rising curve with a large enough effect; inconclusive = small, poorly fitted or top-dose-only effect; inactive = no such curve, though single readings can be large or run the other way;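 further: % of control where 0% means no effect; miR-21 action dims this reporter so a rising signal means less miR-21 action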
#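 Luminescence from a firefly luciferase reporter carrying a miR-21 binding site downstream, stably expressed under a CMV promoter in HeLa cells that make miR-21 endogenously, reports miRNA modulation after 48 h compound exposure up to approximately 40uM final.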
# A549 viability: counter-screen for Nrf2 inhibitors: cytotoxicity in A549 cells; Potency, µM (doses to about 46 µM), without a hit: at the highest dose activity change, negative = cytotoxicity, most hits filed as inhibitors; A549 ARE-Fluc cells, CellTiter-Fluor viability, 18-24 h; AID 504648; actives 0.16% (n = 390,000); note: potency is the fitted concentration of half-maximal effect; % is set by controls: 0 for no effect and ±100 for the full control effect
#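 Cytotoxicity counterscreen: CellTiter-Fluor fluorescence was measured in A549 ARE_Fluc cells after 18-24 h of compound exposure in a concentration series. The subsequent BugLite luminescent read reports ARE-luciferase activity.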
# p53 reactivation: mutant p53 re-activation in reporter cells. actives 0.063% (n = 320,000). H1299 p53-A138V BP100-luciferase reporter, luminescence, 24 h. Potency, µM (highest dose often 92.2 µM), for the others: top-dose activity change, positive = activation, hits mostly activators; note: potency is the fitted concentration of half-maximal effect; % of control where 0% means no effect; nearly all actives have a fitted effect of over 45% in size
#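 p53-null H1299 cells stably carrying temperature-sensitive p53-A138V and a BP100-luciferase reporter were pinned with compounds (4-point, 1:5 series) and held 24 hrs at 37 deg C. Luminescence was read 10 min after detection reagent.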
# ClpP mod: qHTS Assay for Activators of ClpP. ATP-dependent Clp protease proteolytic subunit (Bacillus subtilis (strain 168)), P80244. purified B. subtilis ClpP, FRET peptide cleavage, 20 min. Potency, µM (series often up to 57.5 µM), for inactives: at the top dose activity change, negative = active. actives 1.9% (n = 340,000); active = well fitted falling curve with a large enough effect; inconclusive = small, poorly fitted or top-dose-only effect; inactive = no such curve, though single readings can be large or run the other way; note: potency is the fitted concentration of half-maximal effect; the source files actives as falling curves though it sought activators and does not explain the sign; nearly all actives have a fitted effect of over 65% in size
#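 FRET quenching reversal measured ClpP activation: 10 microg/mL B. subtilis ClpP at pH 8 with the FRET-FV decapeptide, read at 430 nm after 320 nm excitation. The 20-min minus 0-min signal was scaled between DMSO/no-enzyme wells and ADEP (5.8 microM final).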
# Nrf2 inh: Nrf2 pathway inhibition; A549 ARE-Fluc reporter, luciferase luminescence, 18-24 h; Potency, µM (top dose mostly 46 µM), without a hit: top-dose activity change, negative = inhibition, usual class: inhibitors; actives 2.1% (n = 360,000); AID 504444; note: potency is the fitted concentration of half-maximal effect; % is set by controls: 0 for no effect and ±100 for the full control effect; nearly all actives have a fitted effect of over 60% in size
#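 Quantitative HTS in A549 cells stably bearing an antioxidant response element-firefly luciferase construct. Inhibition of Nrf2-driven transcription was scored by luminescence after 18-24 h of compound exposure at 37 °C.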
# Numbers without * were called inactive; u = inconclusive; x = no result; [ ] = remark or other dose. Unless noted, calls come from the whole dose curve; as a rule, active = well fitted curve in the direction sought with a large enough effect; inconclusive = small, poorly fitted or top-dose-only effect, or another doubt; inactive = no such curve, though single readings can be large; an effect the other way counts as inactive or inconclusive.
# Field names: A = Nrf2 activator; B = miR-21 reporter; C = A549 viability; D = p53 reactivation; E = ClpP mod; F = Nrf2 inh
1. CC(=O)N1c2ccc(S(=O)(=O)NCCC(=O)NCCc3ccc(C)cc3)cc2CC1C (stereo not given)
  A: 0%	B: 16%	C: -8%	D: 0%	E: -2%	F: 16µM*
2. CC(=O)N1c2ccc(S(=O)(=O)NCCC(=O)NCCc3cccc(C)c3)cc2CC1C (stereo not given)
  A: -1%	B: 9%	C: -5%	D: -6%	E: 0%	F: u
3. COc1cccc(C(=O)NCC(c2ccc3c(c2)OCO3)N2CCN(C)CC2)c1 (stereo not given)
  A: 0%	B: -11%	C: -1%	D: x	E: 1%	F: x
4. COc1ccccc1CNC(=O)c1sc2nc3n(c(=O)c2c1C)CCC3
  A: 0%	B: -2%	C: 2%	D: x	E: -5%	F: -10%
5. CCc1ccc(OCC(=O)N(Cc2ccco2)Cc2ccco2)cc1
  A: 11%	B: 4%	C: -3%	D: x	E: 2%	F: -5%
6. Cc1ccn2c(Nc3ccc4c(c3)OCCO4)c(-c3ccc(N(C)C)cc3)nc2c1
  A: 5%	B: -36%	C: -12%	D: x	E: u	F: u
7. COC(=O)c1[nH]c2cccc(OC)c2c1NC(=O)C(C)N1CCC(C)CC1 (stereo not given)
  A: 0%	B: 0%	C: -1%	D: -1%	E: 32µM*	F: -18%
8. COC(=O)c1[nH]c2cccc(OC)c2c1NC(=O)CCN1CCC(C)CC1
  A: 3%	B: -3%	C: -5%	D: -3%	E: 25µM*	F: -15%
9. CC(C)(C)c1ccc(CC(=O)N2CCC2(C)C(=O)Nc2cccc3c2CCCC3)cc1 (stereo not given)
  A: 3%	B: x	C: x	D: x	E: 2%	F: x
10. CC(C)(C)OC(=O)Nc1ncnc2c1C(c1ccccc1)c1c(ccc3ccccc13)O2 (stereo not given)
  A: x	B: x	C: 0%	D: x	E: x	F: 4%

# Four entries already listed, arranged by molecular weight, highest first.
# Field names: A = Nrf2 activator; B = miR-21 reporter; C = A549 viability; D = p53 reactivation; E = ClpP mod; F = Nrf2 inh
1. CC(=O)N1c2ccc(S(=O)(=O)NCCC(=O)NCCc3ccc(C)cc3)cc2CC1C (stereo not given)
  A: 0%	B: 16%	C: -8%	D: 0%	E: -2%	F: 16µM*
9. CC(C)(C)c1ccc(CC(=O)N2CCC2(C)C(=O)Nc2cccc3c2CCCC3)cc1 (stereo not given)
  A: 3%	B: x	C: x	D: x	E: 2%	F: x
3. COc1cccc(C(=O)NCC(c2ccc3c(c2)OCO3)N2CCN(C)CC2)c1 (stereo not given)
  A: 0%	B: -11%	C: -1%	D: x	E: 1%	F: x
7. COC(=O)c1[nH]c2cccc(OC)c2c1NC(=O)C(C)N1CCC(C)CC1 (stereo not given)
  A: 0%	B: 0%	C: -1%	D: -1%	E: 32µM*	F: -18%

# Later entries:
# Field names: A = Nrf2 activator; B = miR-21 reporter; C = A549 viability; D = p53 reactivation; E = ClpP mod; F = Nrf2 inh
11. Cc1cccc(OC(C)C(=O)NCc2ccc(S(N)(=O)=O)cc2)c1 (stereo not given)
  A: 0%	B: -3%	C: 6%	D: 2%	E: 3.2µM*	F: -8%
12. Cc1cccc(C(=O)NCc2ccc(S(N)(=O)=O)cc2)c1[N+](=O)[O-]
  A: 0%	B: -8%	C: 0%	D: -1%	E: 28µM*	F: 13%
13. O=C(CNC(=O)c1ccncc1)OC(C(=O)Nc1cc(C(F)(F)F)ccc1Cl)c1ccccc1 (stereo not given)
  A: x	B: x	C: 16%	D: x	E: x	F: u
14. Cc1nc(CS(=O)(=O)c2ccccc2)cc(N2CCN(c3ccccc3F)CC2)n1
  A: -1%	B: 0%	C: -1%	D: 3%	E: x	F: 21µM*
15. Cc1ccc(CN(C(=O)c2ccccc2Br)C2CCS(=O)(=O)C2)o1 (stereo not given)
  A: 4%	B: -1%	C: -2%	D: x	E: -6%	F: 6%
16. O=C1C=C(N(CCO)Cc2ccccc2)c2ccccc2C1=O
  A: -3%	B: u	C: 23µM*	D: -20%	E: -4%	F: 21µM*
17. CN(C)c1ccc(-c2noc(-c3ccccc3O)n2)cc1
  A: 13%	B: -51%	C: -6%	D: 7.1µM*	E: 10µM*	F: u
18. COc1ccc(-c2c(C3C4C=CCCC4(C)C(=O)N3Cc3ccccc3)ccc3ccccc23)cc1 (stereo not given)
  A: x	B: x	C: -1%	D: x	E: x	F: -5%
19. N#Cc1c(Cl)cccc1Oc1ccc([S+](=O)([O-])N2CCN([S+](=O)([O-])c3c(F)cccc3F)CC2)cc1
  A: x	B: x	C: 1%	D: x	E: x	F: 4%
20. Cc1ccc2c(=O)cc(C(=O)Nc3sc4c(c3C(=O)NCc3ccco3)CCCC4)oc2c1C
  A: 0%	B: -1%	C: 3%	D: x	E: 0%	F: 10%
21. COc1ccc(C2CC(c3cccc(C(F)(F)F)c3)=NN2c2ccc(S(N)(=O)=O)cc2)cc1 (stereo not given)
  A: -2%	B: x	C: -13%	D: -13%	E: 4%	F: 23µM*
22. COc1ccc(C2CC(c3cccc(F)c3)=NN2c2ccc(S(N)(=O)=O)cc2)cc1 (stereo not given)
  A: 0%	B: x	C: -3%	D: -6%	E: 4%	F: u
23. CCN1/C(=C2\SC(=S)N(Cc3ccccc3)C2=O)Sc2ccccc21
  A: 2%	B: -1%	C: 4%	D: 12%	E: -7%	F: 1%
24. CCC(CO)[n+]1c(C)cc(/C=C2\Sc3ccccc3N2Cc2ccccc2)cc1C (stereo not given)
  A: -1%	B: u	C: u	D: -17%	E: -1%	F: 15µM*
25. Cc1ccsc1CN(C(=O)COc1cccc(C)c1C)C1CCS(=O)(=O)C1 (stereo not given)
  A: 6%	B: -6%	C: 0%	D: x	E: 1%	F: -16%
26. CCOc1ccc(CC(=O)N2CCc3cc(OC)c(OC)cc3C2COc2ccc3c(C)cc(=O)oc3c2)cc1 (stereo not given)
  A: 0%	B: -18%	C: 1%	D: x	E: 12%	F: 8%[9.27 µM]
27. CCOc1ccc(NC(=S)N2CCc3cc(OC)c(OC)cc3C2COc2ccc3c(C)cc(=O)oc3c2)cc1 (stereo not given)
  A: 0%	B: -11%	C: 8%	D: -8%	E: 8.9µM*	F: -17%
28. Cc1cc(C)c2c(n1)sc1c(=O)n(-c3ccccc3C(F)(F)F)nnc12
  A: -2%	B: 0%	C: 12%	D: x	E: -3%	F: 0%
29. O=C(CSc1n[nH]c(-c2ccc(F)cc2)n1)NCc1ccccc1Cl
  A: -1%	B: -15%	C: 8%	D: x	E: 0%	F: x
30. CC[N+](C)(C)c1ccc(/C=C/c2ccc3ccccc3n2)cc1
  A: x	B: x	C: x	D: x	E: -1%	F: x
31. COc1cc2c(cc1OC)C1=NC(=O)CN1C(SCc1ccc(C)cc1)=N2
  A: 3%	B: 1%	C: -5%	D: -1%	E: 20µM*	F: -10%
32. O=[S+]1([O-])N=C(Oc2cccnc2)c2ccccc21
  A: x	B: x	C: -2%	D: x	E: x	F: 11%
33. O=C(C(=O)N1CCN(C(=O)OCc2ccccc2)CC1)c1cccs1
  A: x	B: x	C: x	D: x	E: 1%	F: x
34. CCc1cccc(-n2c(=O)c3cccnc3n2CC(=O)Nc2ccc(OC)c(Cl)c2)c1
  A: 4%	B: 13%	C: 6%	D: x	E: 4%	F: 8.2µM*
35. CCc1ccc(-n2c(=O)c3cccnc3n2CC(=O)Nc2cc(OC)ccc2OC)cc1
  A: -1%	B: -3%	C: 6%	D: x	E: 4%	F: 10%
36. CC1(C)CC2CC(C)(CN2c2ncnc3ccccc23)C1 (stereo not given)
  A: 0%	B: 10%	C: u	D: -9%	E: 0%	F: 10µM*
37. CC1CCCCN1c1ncnc2ccccc12 (stereo not given)
  A: 3%	B: 15%	C: 10%	D: 2%	E: -4%	F: u
38. CCOC(=O)N1CCc2c(sc3c2c(=O)n(Cc2ccccc2)c(=O)n3Cc2cccc(Cl)c2)C1
  A: -1%	B: 4%	C: 9%	D: x	E: 2%	F: -15%
39. COc1ccc(NC(=O)c2c(NC(=O)CNCc3ccco3)sc3c2CCC3)c(OC)c1
  A: -1%	B: -8%	C: -15%	D: -13%	E: u	F: u
40. COc1ccc(OC)c(NC(=O)c2c(NC(=O)CNCc3ccco3)sc3c2CCC3)c1
  A: 0%	B: -3%	C: -4%	D: 3%	E: 16µM*	F: 0%
